Test system: 4T1 orthotopic tumor-bearing BALB/c mice
Settings: mouse, in vivo; for biodistribution, Blood / biodistribution, Bone / biodistribution, Brain / biodistribution, Heart / biodistribution, Kidneys / biodistribution, L. intestine / biodistribution, Liver / biodistribution, Lungs / biodistribution, Muscle / biodistribution, Pancreas / biodistribution, S. intestine / biodistribution, Skin / biodistribution, Spleen / biodistribution, Stomach / biodistribution, Tumor (4T1 tumoral uptake): iv, 4 h
Method: 4T1 orthotopic BALB/c mouse model. The cells were removed from the flasks, concentrated, and resuspended in minimal media for cell counting. The cells were then diluted to contain approximately 1 million cells in 30 μL of media (for orthotopic allografts). Following an MSKCC Institutional Animal Care and Use Committee approved protocol, 8-10 week old BALB/c mice (Charles River Laboratories, Wilmington, MA) were surgically implanted with one million 4T1 cancer cells into the first or the last mammary fat pad of the right side of the animal using aseptic surgical techniques and sterile staple closures while the mice were under anesthetic. Additionally, mice were given injections of meloxicam (24 h pain killer) in the scruff and bupivacaine intradermally prior to surgical incisions. One day post surgery, the mice were again given meloxicam and checked to ensure that the closure was healing. Two and three days post surgery, the mice were checked to ensure that the animals were healthy and recovering well from the surgery. Five to seven days post surgery, the staples were removed. Five to nine days post surgery, the mice were injected with 50-75 μCi (0.9-0.4 nmol) of the respective radiopharmaceutical for in vivo biodistribution or 500-600 μCi (9-11 nmol) for in vivo imaging. The mice receiving ^64Cu-NOTA-pHLIP were sacrificed at 1, 2, 4, 12, 24, 36, and 48 h; the mice receiving [^18F]—AlF-NOTA-pHLIP were sacrificed at 0.5, 1, 2, 4, 6 and 8 h. The 4T1 tumors in this study were purposely used 5-9 days after inoculation to ensure lower tumoral pH. Animal models. Animal studies were conducted according to MSKCC IACUC-approved animal protocol. 4T1 (orthotopic breast cancer allografts of 1×10^6 cells surgically implanted in the mammary fat pad) and B16-F10 (orthotopic melanoma allografts of 1×10^5 cells injected intradermally on the shoulder) tumors were orthotopically inoculated in media in female BALB/c and C57Bl/6 mice (Charles River Laboratories (CRL)), respectively. Additionally, PC3 (3×10^6 cells) or LNCaP (3-6×10^6 cells) tumors were subcutaneously xenografted on the shoulder of athymic nude male mice (CRL). Mice were used once tumor volumes were approximately 90-300 mm^3. In vivo animal PET imaging and biodistribution. Mice were injected with radiolabeled NOTA-pHLIP derivatives i.v. (500-700 μCi/mouse for PET or SPECT imaging studies and 25-100 μCi/mouse for biodistribution studies). All injections were less than 200 μL with <10% EtOH in sterile PBS. PET images were obtained with the mice under anesthesia in an Inveon PET-CT or microPET Focus 120 (Siemens) at 0.5-48 h p.i. All images were analyzed using ASIPro VM (Concorde Microsystems). SPECT images were obtained with the mice under anesthesia in a NanoSPECT/CT Plus at 4-24 h p.i. All SPECT images were reconstructed using HiSPECT and analyzed using InVivoScope. Dissections for ex vivo biodistribution were performed on mice after CO2 asphyxiation or cervical dislocation while anesthetized at reported time points. Weight of the syringe prior to injection and after injection was used to determine the mass of injectate. Activity of the syringe prior to injection and after injection was used to determine the percent of injectate administered. The mass injected was corrected by the percent of radioactivity injected. Four to five aliquots (10 μL) were weighed and counted as internal standards for each study. All of the collected organs were counted using an automatic gamma counter (Wizard 3″, PerkinElmer, Waltham, MA). The total injected dose was found as the mass injected dose×fraction radioactivity injected×internal standard average counts/g. The percent injected dose (% ID) was determined as the counts for the tissue×100/total injected dose. The % ID/g was calculated as the % ID/tissue weight. The average and standard deviation of the % ID and % ID/g was determined using normal methods (n−1) for each set of mice.

SMILES	kidneys-to-large intestine ratio	biodistribution, Blood	biodistribution, Bone	biodistribution, Brain	biodistribution, Heart	biodistribution, Kidneys	biodistribution, L. intestine	biodistribution, Liver	biodistribution, Lungs	biodistribution, Muscle	biodistribution, Pancreas	biodistribution, S. intestine	biodistribution, Skin	biodistribution, Spleen	biodistribution, Stomach	biodistribution, Tumor (4T1 tumoral uptake)
CC[C@@H](C)[C@@H](NC(=O)[C@H]1CCCN1C(=O)[C@@H](CC(N)=O)NC(=O)[C@@H](CCC(N)=O)NC(=O)[C@@H](CCC(=O)O)NC(=O)[C@@H](CS)NC(=O)[C@@H](C)NC(=S)Nc1ccc(CC2CN(CC(=O)O)CCN(CC(=O)O)CCN2CC(=O)O)cc1)C(=O)N[C@H](Cc1ccc(O)cc1)C(=O)N[C@H](Cc1c[nH]c2ccccc12)C(=O)N[C@H](C)C(=O)N[C@H](CCCNC(=N)N)C(=O)N[C@H](Cc1ccc(O)cc1)C(=O)N[C@H](C)C(=O)N[C@H](CC(=O)O)C(=O)N[C@H](Cc1c[nH]c2ccccc12)C(=O)N[C@H](CC(C)C)C(=O)N[C@H](Cc1ccccc1)C(=O)N[C@@H](C(=O)N[C@@H](C(=O)N1CCC[C@@H]1C(=O)N[C@H](CC(C)C)C(=O)N[C@H](CC(C)C)C(=O)N[C@H](CC(C)C)C(=O)N[C@H](CC(C)C)C(=O)N[C@H](CC(=O)O)C(=O)N[C@H](CC(C)C)C(=O)N[C@H](C)C(=O)N[C@H](CC(C)C)C(=O)N[C@H](CC(C)C)C(=O)N[C@@H](C(=O)N[C@H](CC(=O)O)C(=O)N[C@H](C)C(=O)N[C@H](CC(=O)O)C(=O)N[C@H](CCC(=O)O)C(=O)NCC(=O)N[C@@H](C(=O)O)[C@H](C)O)C(C)C)[C@H](C)O)[C@H](C)O (single isomer, unassigned) [[^18F]—AlF-NOTA-WT]	0.42±0.03	1.978 ± 0.192 % ID/g	0.671 ± 0.305 % ID/g	0.100 ± 0.015 % ID/g	0.66 ± 0.12 % ID/g	8.550 ± 1.138 % ID/g	24.06 ± 2.85 % ID/g	0.973 ± 0.213 % ID/g	2.049 ± 0.211 % ID/g	0.283 ± 0.041 % ID/g	0.324 ± 0.059 % ID/g	0.820 ± 0.245 % ID/g	1.032 ± 0.133 % ID/g	0.434 ± 0.058 % ID/g	0.518 ± 0.152 % ID/g	1.005 ± 0.232 % ID/g
CC[C@@H](C)[C@@H](NC(=O)[C@H]1CCCN1C(=O)[C@@H](CC(N)=O)NC(=O)[C@@H](CCC(N)=O)NC(=O)[C@@H](CCC(=O)O)NC(=O)[C@@H](CS)NC(=O)[C@@H](C)NC(=S)Nc1ccc(CC2CN(CC(=O)O)CCN(CC(=O)O)CCN2CC(=O)O)cc1)C(=O)N[C@H](Cc1ccc(O)cc1)C(=O)N[C@H](Cc1c[nH]c2ccccc12)C(=O)N[C@H](C)C(=O)N[C@H](CCCNC(=N)N)C(=O)N[C@H](Cc1ccc(O)cc1)C(=O)N[C@H](C)C(=O)N[C@H](CC(=O)O)C(=O)N[C@H](Cc1c[nH]c2ccccc12)C(=O)N[C@H](CC(C)C)C(=O)N[C@H](Cc1ccccc1)C(=O)N[C@@H](C(=O)N[C@@H](C(=O)N1CCC[C@@H]1C(=O)N[C@H](CC(C)C)C(=O)N[C@H](CC(C)C)C(=O)N[C@H](CC(C)C)C(=O)N[C@H](CC(C)C)C(=O)N[C@H](CC(=O)O)C(=O)N[C@H](CC(C)C)C(=O)N[C@H](C)C(=O)N[C@H](CC(C)C)C(=O)N[C@H](CC(C)C)C(=O)N[C@@H](C(=O)N[C@H](CC(=O)O)C(=O)N[C@H](C)C(=O)N[C@H](CC(=O)O)C(=O)N[C@H](CCC(=O)O)C(=O)NCC(=O)N[C@@H](C(=O)O)[C@H](C)O)C(C)C)[C@H](C)O)[C@H](C)O (single isomer, unassigned) [^64Cu-NOTA-WT, metal not drawn]	0.35±0.11	1.192 ± 0.263 % ID/g	0.274 ± 0.051 % ID/g	0.054 ± 0.002 % ID/g	0.50 ± 0.04 % ID/g	6.232 ± 0.613 % ID/g	9.96 ± 3.42 % ID/g	0.904 ± 0.097 % ID/g	1.414 ± 0.083 % ID/g	0.166 ± 0.008 % ID/g	0.261 ± 0.066 % ID/g	0.391 ± 0.082 % ID/g	0.715 ± 0.109 % ID/g	0.318 ± 0.023 % ID/g	0.282 ± 0.080 % ID/g	0.679 ± 0.025 % ID/g
